A word on the IC50: it is the midpoint of a concentration-inhibition curve.

Protein sequences, listed by entry. Tags and fused reporters are not part of them. Lines headed by an entry give the natural chain unless they say otherwise; changes in a name come on top.
UniProt Q06187: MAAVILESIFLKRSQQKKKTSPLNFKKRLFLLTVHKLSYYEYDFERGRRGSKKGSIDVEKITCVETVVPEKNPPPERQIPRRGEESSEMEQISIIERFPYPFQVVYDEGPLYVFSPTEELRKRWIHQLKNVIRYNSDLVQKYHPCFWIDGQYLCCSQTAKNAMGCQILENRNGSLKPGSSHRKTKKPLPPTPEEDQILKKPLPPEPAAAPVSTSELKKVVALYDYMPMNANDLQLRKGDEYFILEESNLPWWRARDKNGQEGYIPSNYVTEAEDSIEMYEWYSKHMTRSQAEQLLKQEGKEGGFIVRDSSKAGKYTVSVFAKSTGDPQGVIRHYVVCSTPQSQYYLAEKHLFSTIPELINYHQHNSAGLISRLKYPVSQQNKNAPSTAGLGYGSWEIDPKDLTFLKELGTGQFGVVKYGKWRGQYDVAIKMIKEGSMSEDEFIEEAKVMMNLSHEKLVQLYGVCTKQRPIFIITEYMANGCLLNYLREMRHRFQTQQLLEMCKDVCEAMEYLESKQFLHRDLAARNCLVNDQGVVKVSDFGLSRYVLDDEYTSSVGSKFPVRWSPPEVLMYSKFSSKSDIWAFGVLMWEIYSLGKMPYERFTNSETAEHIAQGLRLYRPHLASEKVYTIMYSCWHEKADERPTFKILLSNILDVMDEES

The target in this assay is human recombinant Btk (Homo sapiens, UniProt Q06187). The experiment in a line: Btk Enzymatic Activity Assay (Caliper-based kinase assay). The format is biochemical. To be noted: human recombinant Btk 2 nM, ATP 40 uM, peptide substrate 1 uM, room temperature, 3 h.
With `CC(C)(N)C=C(C#N)C(=O)N1CCC[C@@H]1Cn1nc(-c2ccc(Oc3cccc(F)c3F)cc2F)c2c(N)ncnc21` [Cpd 104A, (R)-4-amino-2-(2-((4-amino-3-(4-(2,3-difluorophenoxy)-2-fluorophenyl)-1H-pyrazolo[3,4-d]pyrimidin-1-yl)methyl)pyrrolidine-1-carbonyl)-4-methylpent-2-enenitrile], the IC50 is 1 nM.
As for `CC(C)C=C(C#N)C(=O)N[C@@H](C)Cn1nc(-c2ccc(Oc3ccccc3)cc2F)c2c(N)ncnc21` [Cpd 183B, (S)-N-(1-(4-amino-3-(2-fluoro-4-phenoxyphenyl)-1H-pyrazolo[3,4-d]pyrimidin-1H-yl)propan-2-yl)-2-cyano-4-methylpent-2-enamide], the IC50 was found to be 3 nM.
On to `N#CC(=C[C@@H]1CCCN1)C(=O)N1CCC[C@@H]1Cn1nc(-c2ccc(Oc3ccccc3)cc2F)c2c(N)ncnc21` [Cpd 186, 2-((R)-2-((4-amino-3-(2-fluoro-4-phenoxyphenyl)-1H-pyrazolo[3,4-d]pyrimidin-1-yl)methyl)pyrrolidine-1-carbonyl)-3-((S)-pyrrolidin-2-yl)acrylonitrile], for which the IC50 came to 3.7 nM.

The values are drawn from US20160045503A1, “FORMULATIONS CONTAINING REVERSIBLE COVALENT COMPOUNDS” (PRINCIPIA BIOPHARMA INC., priority 2012, published 2016).
